Protein sequences, listed by entry. Tags and fused reporters are not part of them. Residues count along the entry.
UniProt A0AVT1, 35-1052 E601Q: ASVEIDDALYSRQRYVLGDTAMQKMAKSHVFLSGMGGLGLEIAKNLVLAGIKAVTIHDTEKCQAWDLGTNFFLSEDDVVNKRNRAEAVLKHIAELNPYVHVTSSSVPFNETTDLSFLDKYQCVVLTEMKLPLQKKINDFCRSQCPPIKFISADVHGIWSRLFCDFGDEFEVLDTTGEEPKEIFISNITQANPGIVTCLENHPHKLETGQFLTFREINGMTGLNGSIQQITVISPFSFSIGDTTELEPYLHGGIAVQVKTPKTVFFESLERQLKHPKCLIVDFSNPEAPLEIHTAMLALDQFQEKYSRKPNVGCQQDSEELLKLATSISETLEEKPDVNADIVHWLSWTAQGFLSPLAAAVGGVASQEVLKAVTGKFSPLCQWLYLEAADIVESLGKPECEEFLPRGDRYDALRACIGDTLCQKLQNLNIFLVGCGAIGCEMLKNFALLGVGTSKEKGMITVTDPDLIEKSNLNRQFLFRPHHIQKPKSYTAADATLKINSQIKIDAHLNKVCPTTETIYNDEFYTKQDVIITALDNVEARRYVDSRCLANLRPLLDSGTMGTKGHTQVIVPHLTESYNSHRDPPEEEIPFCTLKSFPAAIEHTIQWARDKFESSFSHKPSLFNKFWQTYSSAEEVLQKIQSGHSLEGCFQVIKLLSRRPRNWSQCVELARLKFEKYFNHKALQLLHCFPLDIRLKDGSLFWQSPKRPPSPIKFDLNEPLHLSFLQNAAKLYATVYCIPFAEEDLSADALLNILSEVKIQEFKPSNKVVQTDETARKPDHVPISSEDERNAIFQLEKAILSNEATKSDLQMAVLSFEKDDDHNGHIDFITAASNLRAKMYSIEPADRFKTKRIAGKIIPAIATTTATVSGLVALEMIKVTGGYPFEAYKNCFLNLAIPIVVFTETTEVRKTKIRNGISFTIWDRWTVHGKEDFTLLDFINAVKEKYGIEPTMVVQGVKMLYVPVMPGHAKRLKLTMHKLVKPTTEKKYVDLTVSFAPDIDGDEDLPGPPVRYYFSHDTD
UniProt A0AVT1, 35-1052 D616A: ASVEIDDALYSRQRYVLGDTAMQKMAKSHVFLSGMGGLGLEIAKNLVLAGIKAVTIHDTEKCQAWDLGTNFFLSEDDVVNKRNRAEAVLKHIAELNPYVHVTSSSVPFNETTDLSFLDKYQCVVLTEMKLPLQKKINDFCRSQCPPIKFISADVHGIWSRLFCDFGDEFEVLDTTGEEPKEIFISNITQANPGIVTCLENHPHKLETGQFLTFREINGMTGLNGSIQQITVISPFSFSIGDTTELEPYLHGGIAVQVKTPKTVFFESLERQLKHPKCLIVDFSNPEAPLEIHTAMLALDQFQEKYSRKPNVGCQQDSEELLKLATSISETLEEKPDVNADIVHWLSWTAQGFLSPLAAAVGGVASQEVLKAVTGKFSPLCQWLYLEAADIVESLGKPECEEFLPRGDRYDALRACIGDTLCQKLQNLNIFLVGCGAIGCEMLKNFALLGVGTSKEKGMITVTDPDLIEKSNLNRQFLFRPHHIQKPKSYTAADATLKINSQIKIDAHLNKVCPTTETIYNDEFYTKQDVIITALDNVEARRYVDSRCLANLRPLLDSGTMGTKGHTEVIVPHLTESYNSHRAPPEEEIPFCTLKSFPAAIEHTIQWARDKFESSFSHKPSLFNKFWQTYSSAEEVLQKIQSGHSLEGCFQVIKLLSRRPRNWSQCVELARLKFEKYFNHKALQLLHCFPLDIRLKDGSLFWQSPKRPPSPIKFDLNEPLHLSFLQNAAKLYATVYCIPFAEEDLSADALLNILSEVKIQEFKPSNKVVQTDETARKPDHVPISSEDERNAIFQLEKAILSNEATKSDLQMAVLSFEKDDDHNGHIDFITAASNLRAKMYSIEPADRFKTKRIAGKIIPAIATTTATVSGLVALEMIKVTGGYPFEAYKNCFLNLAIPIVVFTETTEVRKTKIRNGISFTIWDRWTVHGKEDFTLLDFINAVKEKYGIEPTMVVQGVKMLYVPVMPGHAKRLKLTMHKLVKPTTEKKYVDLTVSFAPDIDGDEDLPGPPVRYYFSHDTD
UniProt A0AVT1, 35-1052 F316A: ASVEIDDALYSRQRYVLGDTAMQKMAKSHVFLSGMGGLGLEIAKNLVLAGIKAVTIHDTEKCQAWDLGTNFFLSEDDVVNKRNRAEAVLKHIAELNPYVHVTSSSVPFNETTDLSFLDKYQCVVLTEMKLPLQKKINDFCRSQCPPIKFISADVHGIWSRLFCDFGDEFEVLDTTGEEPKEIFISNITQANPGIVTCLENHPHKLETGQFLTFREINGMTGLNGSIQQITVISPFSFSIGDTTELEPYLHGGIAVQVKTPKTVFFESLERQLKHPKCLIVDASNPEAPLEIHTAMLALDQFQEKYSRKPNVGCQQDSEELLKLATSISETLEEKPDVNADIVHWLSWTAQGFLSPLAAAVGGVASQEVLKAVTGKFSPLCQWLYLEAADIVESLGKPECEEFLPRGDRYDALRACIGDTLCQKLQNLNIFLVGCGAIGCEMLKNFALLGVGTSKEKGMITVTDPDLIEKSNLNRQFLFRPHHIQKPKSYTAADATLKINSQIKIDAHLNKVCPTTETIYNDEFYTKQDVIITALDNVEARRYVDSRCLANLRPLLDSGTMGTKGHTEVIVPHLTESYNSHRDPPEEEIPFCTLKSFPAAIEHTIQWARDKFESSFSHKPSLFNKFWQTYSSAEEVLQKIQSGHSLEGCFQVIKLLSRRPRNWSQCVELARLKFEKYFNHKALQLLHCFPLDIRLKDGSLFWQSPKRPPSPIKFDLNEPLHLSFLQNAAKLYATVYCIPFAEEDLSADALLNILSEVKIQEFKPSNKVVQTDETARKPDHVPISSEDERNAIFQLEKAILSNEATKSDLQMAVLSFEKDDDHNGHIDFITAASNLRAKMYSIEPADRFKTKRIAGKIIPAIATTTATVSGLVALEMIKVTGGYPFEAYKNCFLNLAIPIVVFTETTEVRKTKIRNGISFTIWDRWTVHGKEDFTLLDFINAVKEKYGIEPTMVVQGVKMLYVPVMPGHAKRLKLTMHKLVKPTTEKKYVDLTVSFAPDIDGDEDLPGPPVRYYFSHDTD
UniProt A0AVT1, 35-1052 V934A: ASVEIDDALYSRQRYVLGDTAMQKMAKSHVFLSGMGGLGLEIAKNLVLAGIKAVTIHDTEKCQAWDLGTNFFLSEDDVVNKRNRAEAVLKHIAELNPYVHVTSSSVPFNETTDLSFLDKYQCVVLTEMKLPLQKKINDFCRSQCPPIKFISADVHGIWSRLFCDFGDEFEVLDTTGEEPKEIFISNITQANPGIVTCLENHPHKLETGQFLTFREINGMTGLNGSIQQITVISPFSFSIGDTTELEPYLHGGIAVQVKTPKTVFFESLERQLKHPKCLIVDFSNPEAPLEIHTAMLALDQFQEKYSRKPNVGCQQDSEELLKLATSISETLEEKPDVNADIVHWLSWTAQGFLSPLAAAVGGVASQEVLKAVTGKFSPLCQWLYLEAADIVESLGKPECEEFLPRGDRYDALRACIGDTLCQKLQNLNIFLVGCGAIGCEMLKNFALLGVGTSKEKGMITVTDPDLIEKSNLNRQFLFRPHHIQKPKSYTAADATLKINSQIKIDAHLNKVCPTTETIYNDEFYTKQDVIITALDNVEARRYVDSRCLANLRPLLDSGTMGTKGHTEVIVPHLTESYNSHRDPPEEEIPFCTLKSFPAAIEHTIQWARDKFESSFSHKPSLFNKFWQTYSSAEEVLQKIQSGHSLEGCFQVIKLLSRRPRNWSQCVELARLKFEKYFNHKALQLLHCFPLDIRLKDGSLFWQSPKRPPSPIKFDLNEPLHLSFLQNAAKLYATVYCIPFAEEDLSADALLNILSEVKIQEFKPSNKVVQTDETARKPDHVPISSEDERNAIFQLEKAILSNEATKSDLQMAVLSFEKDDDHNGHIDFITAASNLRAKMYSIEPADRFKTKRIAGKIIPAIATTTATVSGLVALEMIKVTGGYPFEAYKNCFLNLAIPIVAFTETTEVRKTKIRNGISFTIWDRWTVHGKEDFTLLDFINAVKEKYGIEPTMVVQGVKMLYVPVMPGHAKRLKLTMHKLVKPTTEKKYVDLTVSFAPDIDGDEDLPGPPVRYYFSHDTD

According to article PMC9378703, “Structures of UBA6 explain its dual specificity for ubiquitin and FAT10” (Nature Communications, 2022):

Columns and labels:
[1] = target: human UBA6 (residues 35-1052) E601Q variant (human) (UniProt A0AVT1)
[2] = target: human UBA6 (residues 35-1052) D616A variant (human) (UniProt A0AVT1)
[3] = target: human UBA6 (residues 35-1052) F316A variant (human) (UniProt A0AVT1)
[4] = target: human UBA6 (residues 35-1052) V934A variant (human) (UniProt A0AVT1)

- activation of ubiquitin by UBA6 (E1 charged with IRdye 800CW-ubiquitin, non-reducing SDS-PAGE), residual activity relative to wild-type UBA6 [1]: 22%
- ubiquitylation activity of UBA6 (E1 charged with IRdye 800CW-ubiquitin, non-reducing SDS-PAGE), residual activity relative to wild-type UBA6 [2]: 22%
- activation of ubiquitin by UBA6 (ubiquitylation assay, E1 charged with IRdye 800CW-ubiquitin, non-reducing SDS-PAGE), relative to wild-type UBA6 [3]: 33%
- activation of ubiquitin by UBA6 (ubiquitylation assay, E1 charged with IRdye 800CW-ubiquitin, non-reducing SDS-PAGE), relative to wild-type UBA6 [4]: 12%
Substance: ubiquitin (from UniProt P0CG47 1-76) (natural protein)
